From ChEMBL document CHEMBL1148454, “[1-(3,5-difluoro-4-hydroxyphenyl)-1H-pyrrol-3-yl]phenylmethanone as a bioisostere of a carboxylic acid aldose reductase inhibitor” (J Med Chem, 2004)

Biological target: Aldo-keto reductase family 1 member B1 (Rattus norvegicus, UniProt P07943)
Assay: In vitro inhibitory activity of compound against rat lens aldose reductase
Outline: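 Enzyme from lenses of Fischer-344 rats of both sexes. Activity followed spectrophotometrically as NADPH oxidation. Compounds dissolved in 0.2 M NaHCO3 and tested at five concentrations in triplicate. IC50 from least-squares analysis of the linear portions of log(dose)–response curves (0.880 < r2 < 0.993).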

An IC50 of 250 nM was found for `O=C1NC(=O)[C@@]2(CCOc3ccc(F)cc32)N1` [SORBINIL] in this work.
